Assay results from PubChem BioAssay (NCI).
Values joined by “and” are separate entries in the source; they are usually repeats but may differ in a detail not shown here. Identical values can stand only once. The entries are a selection whose mix differs from that of the whole data set.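 Plates (96-well) were seeded with cells, treated with compound at one concentration, and incubated for 48 hours before percent growth was determined.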 Active and inactive are the calls of the source. The calls were made as follows: active = growth percent below 10; inactive = the rest.

What follows are molecules tested on SF-268 CNS (assay: NCI-60 one-dose screen, 48 h (100 = growth as untreated, 0 = no growth, -100 = all killed)). Settings: 10 µM.

Structure (SMILES)	growth
NC(=NCCN/C(N)=N/[N+](=O)[O-])N[N+](=O)[O-]	inactive: 98.2%
O=[N+]([O-])N(CCN(CC(Br)([N+](=O)[O-])[N+](=O)[O-])[N+](=O)[O-])CC(Br)([N+](=O)[O-])[N+](=O)[O-]	inactive: 98.9%
CN(C)Nc1c([N+](=O)[O-])cc([N+](=O)[O-])cc1[N+](=O)[O-]	inactive: 105%
O=[N+]([O-])OCCOc1ccc([N+](=O)[O-])cc1[N+](=O)[O-]	inactive: 104%
N=C(N)N(N)[N+](=O)[O-]	inactive: 101%
O=[N+]([O-])c1cc([N+](=O)[O-])c(C(F)(F)F)c([N+](=O)[O-])c1O	inactive: 95.7%
CCOC(=O)CSc1c(N)c(C)nn1C.O=[N+]([O-])c1cc([N+](=O)[O-])c(O)c([N+](=O)[O-])c1	inactive: 104%
O=[N+]([O-])c1ccc(OP2(=O)COCCO2)cc1 (configuration not stated)	inactive: 107%
CCN(C)CC.O=[N+]([O-])c1cc([N+](=O)[O-])c(O)c([N+](=O)[O-])c1	inactive: 99.8%
OCCSCCO	inactive: 111%
CC(C)N1CCN(CCOC(=O)C(O)(c2ccccc2)c2ccccc2)CC1	inactive: 99.5%
O=[N+]([O-])c1ccc(Oc2c([N+](=O)[O-])cc([N+](=O)[O-])cc2[N+](=O)[O-])cc1	inactive: 101%
O=C(Cl)c1c([N+](=O)[O-])cc([N+](=O)[O-])cc1[N+](=O)[O-]	inactive: 74.6%
O=[N+]([O-])c1cc([N+](=O)[O-])c(Nc2ccc(Cl)cc2)c([N+](=O)[O-])c1	inactive: 22.8%
CNc1ccccc1.O=[N+]([O-])c1cc([N+](=O)[O-])c(O)c([N+](=O)[O-])c1	inactive: 120%
CCOP(=O)(CC)OCC	inactive: 111%

Structure (SMILES)	growth
O=[N+]([O-])c1cc([N+](=O)[O-])c(O)c([N+](=O)[O-])c1.c1ccnnc1	inactive: 107%
CCCOP(=S)(Cl)OCCC	inactive: 101%
CN(C)CCS	inactive: 99.2% and inactive: 111%
CCN(CC)CCS	inactive: 99.9%
CN(CCCl)CCCCCCCl	inactive: 89.2%
Cc1ccc(Nc2c([N+](=O)[O-])cc([N+](=O)[O-])cc2[N+](=O)[O-])cc1	inactive: 87.2%
CN1CCN(CCOC(=O)C(O)(c2ccccc2)c2ccccc2)CC1	inactive: 98.8%
NN/C(N)=N/[N+](=O)[O-]	inactive: 114%
CP(=S)(Cl)N(CCCl)CCCl (configuration not stated)	inactive: 112%
CC[N+](C)(CC)Cc1cc(Cc2ccccc2)ccc1OC(=O)N(C)C	inactive: 103%
Clc1ccccc1SCCBr	inactive: 96.3%
CP(=O)(OCCCCl)N(CCCl)CCCl (configuration not stated)	inactive: 111%
O=[N+]([O-])c1cccc([N+](=O)[O-])c1O	inactive: 102%
COC(=O)C(O)(c1ccccc1)c1ccccc1	inactive: 113%
Cc1c([N+](=O)[O-])c(C)c([N+](=O)[O-])c(Nc2c([N+](=O)[O-])c(C)c([N+](=O)[O-])c(C)c2[N+](=O)[O-])c1[N+](=O)[O-]	inactive: 15.5%

Each molecule was assayed on SF-295 CNS in the same assay as above. Settings: 10 µM.

Structure (SMILES)	growth
NC(=NCCN/C(N)=N/[N+](=O)[O-])N[N+](=O)[O-]	inactive: 91.8%
O=[N+]([O-])N(CCN(CC(Br)([N+](=O)[O-])[N+](=O)[O-])[N+](=O)[O-])CC(Br)([N+](=O)[O-])[N+](=O)[O-]	inactive: 86.2%
CN(C)Nc1c([N+](=O)[O-])cc([N+](=O)[O-])cc1[N+](=O)[O-]	inactive: 110%
O=[N+]([O-])OCCOc1ccc([N+](=O)[O-])cc1[N+](=O)[O-]	inactive: 103%
N=C(N)N(N)[N+](=O)[O-]	inactive: 106%
O=[N+]([O-])c1cc([N+](=O)[O-])c(C(F)(F)F)c([N+](=O)[O-])c1O	inactive: 92.1%
O=[N+]([O-])c1ccc(OP2(=O)COCCO2)cc1 (configuration not stated)	inactive: 96.1%
CCN(C)CC.O=[N+]([O-])c1cc([N+](=O)[O-])c(O)c([N+](=O)[O-])c1	inactive: 95.3%
OCCSCCO	inactive: 101%
CC(C)N1CCN(CCOC(=O)C(O)(c2ccccc2)c2ccccc2)CC1	inactive: 97.9%
O=[N+]([O-])c1ccc(Oc2c([N+](=O)[O-])cc([N+](=O)[O-])cc2[N+](=O)[O-])cc1	inactive: 106%
O=C(Cl)c1c([N+](=O)[O-])cc([N+](=O)[O-])cc1[N+](=O)[O-]	inactive: 108%
CCOP(=O)(CC)OCC	inactive: 96.6%
CCCOP(=S)(Cl)OCCC	inactive: 97.4%
CN1CCN(CCOC(=O)C(O)(c2ccccc2)c2ccccc2)CC1	inactive: 101%
NN/C(N)=N/[N+](=O)[O-]	inactive: 122%
CC[N+](C)(CC)Cc1cc(Cc2ccccc2)ccc1OC(=O)N(C)C	inactive: 98.8%
Clc1ccccc1SCCBr	inactive: 107%
O=[N+]([O-])c1cccc([N+](=O)[O-])c1O	inactive: 119%
COC(=O)C(O)(c1ccccc1)c1ccccc1	inactive: 95.2%
Cc1c([N+](=O)[O-])c(C)c([N+](=O)[O-])c(Nc2c([N+](=O)[O-])c(C)c([N+](=O)[O-])c(C)c2[N+](=O)[O-])c1[N+](=O)[O-]	active: -62.1%
